Reference: ChEMBL document CHEMBL2417365, “Design, synthesis, and in vitro hMAO-B inhibitory evaluation of some 1-methyl-3,5-diphenyl-4,5-dihydro-1H-pyrazoles” (Bioorg Med Chem Lett, 2013)

The chains behind the UniProt entries cited, without tags or fusion partners.
UniProt P27338, whole entry: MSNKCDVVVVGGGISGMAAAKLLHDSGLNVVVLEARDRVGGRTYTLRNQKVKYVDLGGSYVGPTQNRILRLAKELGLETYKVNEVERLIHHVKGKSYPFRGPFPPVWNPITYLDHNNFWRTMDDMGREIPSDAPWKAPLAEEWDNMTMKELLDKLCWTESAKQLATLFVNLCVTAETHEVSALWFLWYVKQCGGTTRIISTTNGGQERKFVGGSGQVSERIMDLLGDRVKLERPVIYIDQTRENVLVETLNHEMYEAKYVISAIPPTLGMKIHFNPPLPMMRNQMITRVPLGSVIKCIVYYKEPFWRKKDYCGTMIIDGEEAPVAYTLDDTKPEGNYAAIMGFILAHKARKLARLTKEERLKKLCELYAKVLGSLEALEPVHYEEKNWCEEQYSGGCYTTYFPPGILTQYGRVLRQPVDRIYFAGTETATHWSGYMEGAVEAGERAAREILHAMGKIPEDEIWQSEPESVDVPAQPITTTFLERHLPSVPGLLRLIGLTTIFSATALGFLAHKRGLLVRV

Tests used:
Homo sapiens = species: Homo sapiens; assay: Selectivity index, ratio of IC50 for human MAO-A to IC50 for human MAO-B
[1] = target: Amine oxidase [flavin-containing] B (Homo sapiens, UniProt P27338); assay: biochemical; assay type: cell-based, BTI-TN-5B1-4

CN1N=C(c2ccc(O)cc2O)CC1c1ccc(F)cc1 (configuration not stated)
Ratio IC50 (Homo sapiens): 1.6 | IC50 [1]: 490 nM
